This experiment has as its target Human Factor D (Homo sapiens (Human), UniProt P00746). Put plainly: Human Factor D assay. Conditions: Table 4; Factor D inhibition, substrate Z-L-Lys-SBzl. The class given is biochemical. Here is the method: Human Factor D (purified from human serum, Complement Technology, Inc.) at 80 nM final concentration is incubated with test compound at various concentrations for 5 min at room temperature in 50 mM Tris, 1M NaCl, pH 7.5. A synthetic substrate Z-L-Lys-SBzl and DTNB (Ellman's reagent) are added to final concentrations of 100 μM each. […] IC50 values are calculated by nonlinear regression of complement Factor D reaction rates as a function of test compound concentration.

Chains of the proteins cited; added tags and fusions are not shown. Residues count along the entry.
UniProt P00746, 26-253: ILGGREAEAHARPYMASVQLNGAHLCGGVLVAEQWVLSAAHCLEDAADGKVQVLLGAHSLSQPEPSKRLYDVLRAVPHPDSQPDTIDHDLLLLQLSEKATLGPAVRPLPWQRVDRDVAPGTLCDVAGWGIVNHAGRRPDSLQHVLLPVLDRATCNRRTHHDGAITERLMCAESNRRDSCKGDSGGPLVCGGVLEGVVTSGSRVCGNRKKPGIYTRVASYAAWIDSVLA

Each structure is given as a SMILES string. Some results are limits rather than exact numbers.

As for `CC(=O)c1nn(CP(=O)(O)N2C[C@H](F)C[C@H]2C(=O)Nc2cccc(Br)n2)c2ccc(-c3cnc(C)nc3)cc12` [Compound 627, ((3-acetyl-5-(2-methylpyrimidin-5-yl)-1H-indazol-1-yl)methyl)((2S,4R)-2-((6-bromopyridin-2-yl)carbamoyl)-4-fluoropyrrolidin-1-yl)phosphinic acid], the IC50 was above 10 µM.

For orientation: IC50 means the midpoint of a concentration-inhibition curve. A lower IC50 goes with higher potency.

For the origin of these results see US11407738B2 (Achillion Pharmaceuticals, Inc., priority 2015, dated 2022).
